Test results taken from PMC3983359 (Journal of Medicinal Chemistry, 2014).
Structures can show the parent of a compound that is named as a salt.

Details: 50 µM, human liver microsomes, NADPH, 60 minutes

| Compound | GSH adducts |
| --- | --- |
| Cc1cc(C)nc(NC(=S)N2CCN(c3ccc(Cl)cc3C(F)(F)F)CC2)c1 [Compound 41, 4-(4-Chloro-2-(trifluoromethyl)phenyl)-N-(4,6-dimethylpyridin-2-yl)piperazine-1-carbothioamide Trifluoroacetate] | did not show any GSH adducts |
| COc1ccnc(NC(=S)N2CCN(c3ncc(C(F)(F)F)cc3Cl)CC2)c1 [Compound 55, 4-(3-Chloro-5-(trifluoromethyl)pyridin-2-yl)-N-(4-methoxypyridin-2-yl)piperazine-1-carbothioamide Trifluoroacetate] | did not show any GSH adducts |
